Values of other authors in the PKSmart pharmacokinetics tables (Seal et al. 2025).

Test: Lombardo et al. 2013, J Clin Pharmacol 53:178, doi 10.1177/0091270012440282
Settings: rat

Q: What does the source list for CC(C)N1CCC(N(C(=O)Cc2ccccc2)c2ccc(Cl)cc2)CC1?
A: Vd (in vivo, iv): 15.7 L/kg; clearance (in vivo, iv): 103 mL/min/kg; fraction unbound (plasma): 0.26
